# pEC50, pIC50: −log10 of the molar value.
# Sequences of proteins named here, by UniProt entry; tags and fusion partners are left off. Residues count along the entry.
# UniProt P43220, 24-463: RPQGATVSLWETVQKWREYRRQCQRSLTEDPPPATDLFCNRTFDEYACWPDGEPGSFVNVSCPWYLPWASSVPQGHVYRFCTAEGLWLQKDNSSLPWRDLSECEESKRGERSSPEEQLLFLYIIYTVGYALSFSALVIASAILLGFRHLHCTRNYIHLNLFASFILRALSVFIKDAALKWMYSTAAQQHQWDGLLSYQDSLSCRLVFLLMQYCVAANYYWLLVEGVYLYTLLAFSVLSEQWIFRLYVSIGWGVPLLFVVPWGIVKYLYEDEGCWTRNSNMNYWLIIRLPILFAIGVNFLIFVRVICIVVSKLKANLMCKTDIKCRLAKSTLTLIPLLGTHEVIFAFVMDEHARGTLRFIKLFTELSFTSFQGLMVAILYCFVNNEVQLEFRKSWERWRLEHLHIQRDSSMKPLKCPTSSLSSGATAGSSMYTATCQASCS
# Assays:
# human GLP-1R = molecular target: T1, human GLP-1R (Homo sapiens, UniProt P43220); experiment: Agonist activity on human GLP-1R, CRE-luciferase reporter assay with increase in intracellular cAMP as indicator; type: cell-based; conditions: hGLP-1R/CRE-luc/CHO-K1 cells, 4 hours incubation, 10 nM GLP-1 = 100%
# T1 construct: expressed in transfected cells; host or cells: CHO-K1 (hGLP-1R/CRE-luc/CHO-K1 line)
# human GIPR [1] = molecular target: T2, human GIPR (Homo sapiens, UniProt P48546); experiment: Binding activity to human GIPR using [125I]-GIP (GIPR_VLP); conditions: [125I]GIP 100 pM, room temperature 2 hours
# T2 construct: expressed in transfected cells; host or cells: CHO-K1 (CRE-LUC/CHO-K1 reporter cell; hGIPR/CRE-LUC/CHO-K1 line)
# T2 sequence (P48546 22-466): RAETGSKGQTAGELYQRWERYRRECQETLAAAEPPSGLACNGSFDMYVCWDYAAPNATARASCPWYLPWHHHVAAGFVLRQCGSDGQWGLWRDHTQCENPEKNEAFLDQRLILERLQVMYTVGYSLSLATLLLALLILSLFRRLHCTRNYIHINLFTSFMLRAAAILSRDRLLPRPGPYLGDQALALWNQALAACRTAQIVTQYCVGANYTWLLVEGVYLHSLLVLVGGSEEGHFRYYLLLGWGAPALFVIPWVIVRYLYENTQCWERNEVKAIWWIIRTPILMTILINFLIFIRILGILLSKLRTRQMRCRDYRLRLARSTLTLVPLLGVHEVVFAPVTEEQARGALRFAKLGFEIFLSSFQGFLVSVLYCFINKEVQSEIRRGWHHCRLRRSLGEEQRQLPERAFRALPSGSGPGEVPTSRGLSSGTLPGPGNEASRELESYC
# Description: The GF/C glass fiber filter 96-well plate in which VLP was trapped was dried at 42° C. overnight. Thereafter, MicroScint-O (PerkinElmer 6013611) was added to the GF/C glass fiber filter 96-well plate sealed using a backseal and the plate was sealed using a topseal.
# human GIPR [2] = molecular target: T2, human GIPR; experiment: Agonist activity on human GIPR, CRE-luciferase reporter assay with increase in intracellular cAMP as indicator; type: cell-based; conditions: hGIPR/CRE-LUC/CHO-K1 cells, 4 hours incubation, 10 nM GIP = 100%
# [3] = Plasma levels in ferrets of the vomiting tests; type: in vivo; conditions: for Plasma level 4 hours after administration: 30 nmol/kg s.c.; for Plasma level 120 hours after administration: 144 μg/kg (30 nmol/kg) s.c.; for Plasma level at the test completion: cisplatin test
# Description: The ferret test was carried out by Nissei Bilis Co., Ltd. (Shiga prefecture, Japan). Cisplatin (10 mg/kg i.p.) was administered to male ferrets (10-week-old, n=6) to induce acute vomiting. […] The frequency of emesis (feeling queasy, vomiting) was monitored over a period of 8 hours after cisplatin administration.
# […]. At the time of each of 4 hours, or 120 hours after administration, 0.6 mg/kg of morphine was subcutaneously administered. Up to 60 minutes after morphine administration, the condition of the ferrets was monitored to record the frequencies and time points of abdominal contraction motions, vomiting behaviors, licking with the tongue, and fidgety behavior occurring.
# beagles = experiment: PYY-1119-induced vomiting in dogs; type: in vivo; conditions: PYY-1119 10 μg/kg [about 5 nmol/kg] s.c. alone, 2-hour observation, FIG. 7A
Substance,pEC50 (human GLP-1R),pIC50 (human GIPR [1]),pEC50 (human GIPR [2]),Plasma level 4 hours after administration [3],Plasma level 120 hours after administration [3],"Frequency of vomiting, PYY-1119 alone (beagles)",Plasma level at the test completion ([3]; 16.7 nmol/kg/hour subcutaneous),Plasma level at the test completion ([3]; 167 nmol/kg/hour subcutaneous)
H-MeTyr-Aib-Glu-Gly-Thr-Iva-Ile-Ser-Asp-Tyr-Ser-Ile-Aib-Leu-Asp-Arg-Lys(Oda-GGGGG-)-Ala-Gln-Aib-Asn-Phe-Val-Asn-Trp-Iva-Leu-Ala-Gln-Arg-Pro-Ser-Ser-Gly-Ala-Pro-Pro-Pro-Ser-NH2 [Compound 349],< 6.00,8.38,10.72,143.4 nM,43.3 nM,,,
H-MeTyr-Aib-Glu-Gly-Thr-Iva-Ile-Ser-Asp-Tyr-Ser-Ile-Aib-Lys(Eda-GGGGG-)-Asp-Arg-Aib-Ala-Gln-Aib-Asn-Phe-Val-Asn-Trp-Iva-Leu-Ala-Gln-Arg-Pro-Ser-Ser-Gly-Ala-Pro-Pro-Pro-Ser-NH2 [Compound 341],< 6.00,7.80,10.32,154.0 nM,82.3 nM,,,
"4-imidazolecarbonyl-Ser-D-Hyp-Iva-Pya(4)-Cha-Leu(Me)-Asn-Lys-Aib-Thr-Arg-Gln-Arg-Cha-NH2 [PYY-1119, reference compound]",,,,,,6 to 28 times,,
H-Tyr-Aib-Glu-Gly-Thr-Val-Val-Ser-Leu-Tyr-Ser-Ile-Aib-Leu-Asp-Lys-Gln-Ala-Gln-Aib-Glu-Phe-Val-Lys-Trp-Leu-Leu-Lys-Gly-Gly-Pro-Ser-Ser-Gly-Ala-Pro-Pro-Pro-Ser-Lys-NH2 [Compound 6],< 6.00,8.60,11.17,,,,133.4 nM,392.7 nM

# — US11174301B2 (Takeda Pharmaceutical Company Limited, priority 2017, dated 2021)
